Data: ChEMBL document CHEMBL3286180, “Efficacious inhaled PDE4 inhibitors with low emetic potential and long duration of action for the treatment of COPD” (J Med Chem, 2014)

Sequences of proteins named here, by UniProt entry; tags and fusion partners are left off. A change or cut given only in a name is not applied to a line headed by its entry.
UniProt Q08499: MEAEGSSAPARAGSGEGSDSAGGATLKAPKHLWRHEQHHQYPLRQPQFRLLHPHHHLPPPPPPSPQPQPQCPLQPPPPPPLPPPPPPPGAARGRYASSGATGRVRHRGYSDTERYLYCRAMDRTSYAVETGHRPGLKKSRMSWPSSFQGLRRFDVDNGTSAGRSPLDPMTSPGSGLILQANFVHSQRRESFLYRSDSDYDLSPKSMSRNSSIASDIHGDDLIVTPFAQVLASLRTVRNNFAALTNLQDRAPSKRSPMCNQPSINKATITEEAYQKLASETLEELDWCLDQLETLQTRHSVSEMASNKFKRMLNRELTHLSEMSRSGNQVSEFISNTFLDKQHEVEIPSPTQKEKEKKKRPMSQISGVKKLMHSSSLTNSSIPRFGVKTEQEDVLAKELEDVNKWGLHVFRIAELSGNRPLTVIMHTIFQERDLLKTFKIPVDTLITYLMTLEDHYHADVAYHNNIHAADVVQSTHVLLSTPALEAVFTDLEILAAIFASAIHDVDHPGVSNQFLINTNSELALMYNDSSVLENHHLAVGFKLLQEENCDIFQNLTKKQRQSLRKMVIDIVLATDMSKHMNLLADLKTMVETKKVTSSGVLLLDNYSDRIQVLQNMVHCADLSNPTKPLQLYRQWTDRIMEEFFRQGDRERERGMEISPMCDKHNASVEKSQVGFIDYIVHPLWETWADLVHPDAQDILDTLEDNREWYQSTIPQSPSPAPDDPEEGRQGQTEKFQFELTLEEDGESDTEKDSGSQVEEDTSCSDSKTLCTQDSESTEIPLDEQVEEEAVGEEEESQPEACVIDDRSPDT
UniProt Q07343: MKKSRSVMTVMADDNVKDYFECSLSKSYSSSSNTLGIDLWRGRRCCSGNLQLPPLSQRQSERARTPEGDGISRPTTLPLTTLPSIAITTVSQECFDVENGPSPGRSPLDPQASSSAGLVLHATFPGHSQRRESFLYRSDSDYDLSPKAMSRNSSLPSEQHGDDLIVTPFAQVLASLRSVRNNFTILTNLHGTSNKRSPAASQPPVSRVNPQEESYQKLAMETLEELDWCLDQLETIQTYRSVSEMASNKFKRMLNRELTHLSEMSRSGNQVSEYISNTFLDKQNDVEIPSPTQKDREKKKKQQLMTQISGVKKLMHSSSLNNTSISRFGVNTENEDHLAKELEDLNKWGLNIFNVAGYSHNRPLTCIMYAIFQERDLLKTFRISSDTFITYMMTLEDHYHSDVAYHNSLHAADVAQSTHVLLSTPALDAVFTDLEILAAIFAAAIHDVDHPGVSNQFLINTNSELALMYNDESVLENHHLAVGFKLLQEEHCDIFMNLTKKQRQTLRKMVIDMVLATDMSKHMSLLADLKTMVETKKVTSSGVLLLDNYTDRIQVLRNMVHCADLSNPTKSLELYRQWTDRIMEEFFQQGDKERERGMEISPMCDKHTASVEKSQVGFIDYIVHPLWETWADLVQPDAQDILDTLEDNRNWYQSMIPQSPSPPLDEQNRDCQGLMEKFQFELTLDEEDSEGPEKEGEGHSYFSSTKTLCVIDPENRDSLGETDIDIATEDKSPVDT

What was measured:
[1] = biological target: 3',5'-cyclic-AMP phosphodiesterase 4D (Homo sapiens, UniProt Q08499); test: Inhibition of human PDE4D using [3H]cAMP by packard topcount scintillation counting analysis
[2] = biological target: 3',5'-cyclic-AMP phosphodiesterase 4B (Homo sapiens, UniProt Q07343); test: Inhibition of human recombinant PDE4B at high-affinity rolipram binding site

IC50 [1]: 0.02 nM | IC50 [2]: < 10 nM
Structure (SMILES): Cc1ccc(O)c(C(=O)N[C@H]2CC[C@@H](NC(=O)c3cc(F)cnc3Oc3cccc(-c4ccc(CN5C[C@@H](C)N[C@@H](C)C5)cc4CN4CCOCC4)c3)CC2)c1
